Laboratory results as given in the NIST ThermoML archive (doi:10.1016/j.fluid.2016.07.025).

CCCCOCCCC [dibutyl ether]
Settings	speed of sound, Rayleigh light scatter [m/s]	thermal diffusivity, Rayleigh light scattering [m2/s]
303.15 K, Liquid	1143.5	7.07e-08
318.15 K, Liquid	1085.8	6.81e-08
333.15 K, Liquid	1029	6.56e-08
348.15 K, Liquid	973.04	6.32e-08
363.15 K, Liquid	917.88	6.1e-08
373.15 K, Liquid	881.52	5.95e-08
383.15 K, Liquid	845.45	5.81e-08
393.15 K, Liquid	809.66	5.67e-08
403.15 K, Liquid	774.11	5.54e-08
413.15 K, Liquid	738.78	5.42e-08
423.15 K, Liquid	703.63	5.3e-08
433.15 K, Liquid	668.62	5.18e-08
443.15 K, Liquid	633.7	5.06e-08
453.15 K, Gas	155.84	–
453.15 K, Liquid	598.83	4.95e-08
463.15 K, Gas	155.2	–
463.15 K, Liquid	563.95	4.85e-08
473.15 K, Gas	153.97	–
473.15 K, Liquid	528.99	4.74e-08
483.15 K, Gas	152.07	–
483.15 K, Liquid	493.86	4.64e-08
493.15 K, Gas	149.44	–
493.15 K, Liquid	458.48	4.54e-08
503.15 K, Gas	145.99	–
503.15 K, Liquid	422.72	4.45e-08
508.15 K, Gas	143.93	–
508.15 K, Liquid	404.65	4.4e-08
513.15 K, Gas	141.62	–
513.15 K, Liquid	386.43	4.35e-08
518.15 K, Gas	139.06	–
518.15 K, Liquid	368.04	4.3e-08
523.15 K, Gas	136.23	–
523.15 K, Liquid	349.43	4.25e-08
528.15 K, Gas	133.13	–
528.15 K, Liquid	330.59	4.19e-08
533.15 K, Gas	129.72	–
533.15 K, Liquid	311.47	4.14e-08
538.15 K, Gas	126	–
538.15 K, Liquid	292.02	4.08e-08
543.15 K, Gas	121.95	1.98e-07
543.15 K, Liquid	272.18	4.02e-08
548.15 K, Gas	117.54	1.81e-07
548.15 K, Liquid	251.88	3.96e-08
553.15 K, Gas	112.77	1.63e-07
553.15 K, Liquid	231.03	3.89e-08
558.15 K, Gas	107.6	1.46e-07
558.15 K, Liquid	209.5	3.81e-08
561.15 K, Gas	104.29	1.35e-07
561.15 K, Liquid	196.2	3.75e-08
564.15 K, Gas	100.83	1.24e-07
564.15 K, Liquid	182.53	3.69e-08
567.15 K, Gas	97.21	1.12e-07
567.15 K, Liquid	168.45	3.62e-08
570.15 K, Gas	93.4	1e-07
570.15 K, Liquid	153.86	3.54e-08
573.15 K, Gas	89.42	8.61e-08
573.15 K, Liquid	138.64	3.44e-08
576.15 K, Gas	85.25	7e-08
576.15 K, Liquid	122.58	3.3e-08
577.15 K, Gas	83.81	–
579.15 K, Gas	–	5.02e-08
579.15 K, Liquid	105.33	3.1e-08
582.15 K, Liquid	86.01	–

Rayleigh light scattering
Settings	speed of sound, Liquid [m/s]	thermal diffusivity, Fluid (supercritical or subcritical phases) [m2/s]
586.31 K, 6500 kPa	–	5.63e-08
586.41 K, 4000 kPa	–	4.65e-08
586.44 K, 4500 kPa	237.17	–
586.46 K, 5500 kPa	276.64	5.46e-08
586.5 K, 4500 kPa	–	5.06e-08
586.51 K, 6500 kPa	307.09	–
586.75 K, 7500 kPa	332.28	5.73e-08
586.81 K, 3500 kPa	184.9	4.16e-08
586.81 K, 3750 kPa	–	4.41e-08
588.4 K, 5500 kPa	–	5.44e-08
588.45 K, 7500 kPa	–	5.73e-08
588.47 K, 4500 kPa	–	5.04e-08
588.49 K, 3500 kPa	–	3.14e-08
588.49 K, 3750 kPa	–	4.09e-08
588.51 K, 4000 kPa	–	4.55e-08
588.55 K, 6500 kPa	–	5.62e-08
589.94 K, 3500 kPa	143.08	2.86e-08
589.94 K, 3750 kPa	–	3.86e-08
589.99 K, 4500 kPa	–	5.01e-08
590.01 K, 4000 kPa	–	4.46e-08
590.03 K, 4500 kPa	207.46	–
590.29 K, 5500 kPa	250.4	5.42e-08
590.47 K, 6500 kPa	283.36	–
590.59 K, 6500 kPa	–	5.61e-08
590.59 K, 7500 kPa	311.32	5.73e-08
591.3 K, 5500 kPa	–	5.41e-08
591.35 K, 3500 kPa	–	3.02e-08
591.35 K, 3750 kPa	–	3.62e-08
591.52 K, 7500 kPa	–	5.73e-08
591.54 K, 4500 kPa	–	4.99e-08
591.6 K, 4000 kPa	–	4.36e-08
591.7 K, 6500 kPa	–	5.6e-08
592.77 K, 3500 kPa	114.69	3.43e-08
592.77 K, 3750 kPa	–	3.45e-08
592.89 K, 4000 kPa	–	4.27e-08
592.89 K, 4500 kPa	–	4.96e-08
593.04 K, 4500 kPa	183.43	–
593.39 K, 5500 kPa	233.22	5.39e-08
593.6 K, 6500 kPa	267.17	–
593.77 K, 6500 kPa	–	5.59e-08
593.77 K, 7500 kPa	296.8	5.73e-08
594.02 K, 4500 kPa	–	4.93e-08
594.73 K, 3750 kPa	–	3.31e-08
594.73 K, 4000 kPa	–	4.12e-08
594.85 K, 3500 kPa	–	4.25e-08
595.35 K, 5500 kPa	–	5.37e-08
595.98 K, 4500 kPa	–	4.88e-08
596.07 K, 4000 kPa	–	4.06e-08
596.74 K, 6500 kPa	–	5.58e-08
596.74 K, 7500 kPa	–	5.73e-08
596.78 K, 3500 kPa	–	5.4e-08
596.78 K, 3750 kPa	–	3.2e-08
596.85 K, 5500 kPa	–	5.36e-08
598.77 K, 5500 kPa	–	5.34e-08
598.89 K, 6500 kPa	–	5.57e-08
598.89 K, 7500 kPa	–	5.74e-08
598.96 K, 3500 kPa	90.21	6.51e-08
598.96 K, 3750 kPa	–	3.34e-08
599.04 K, 4000 kPa	–	3.9e-08
599.12 K, 4500 kPa	–	4.77e-08
599.73 K, 4500 kPa	148.57	–
599.77 K, 5500 kPa	205.29	–
599.79 K, 6500 kPa	243.74	–
599.89 K, 7500 kPa	273.8	–
601.45 K, 5500 kPa	–	5.32e-08
601.54 K, 3500 kPa	–	7.51e-08
601.54 K, 3750 kPa	–	4.06e-08
601.54 K, 4000 kPa	–	3.83e-08
601.54 K, 4500 kPa	–	4.72e-08
603.05 K, 4500 kPa	–	4.71e-08
603.12 K, 4000 kPa	–	3.84e-08
603.27 K, 6500 kPa	–	5.56e-08
603.27 K, 7500 kPa	–	5.75e-08
603.82 K, 4500 kPa	132.6	–
603.96 K, 3500 kPa	95.38	8.55e-08
603.96 K, 3750 kPa	–	5.1e-08
603.99 K, 5500 kPa	189.07	5.31e-08
604.21 K, 6500 kPa	227.74	–
604.27 K, 7500 kPa	258.48	–
606.15 K, 3500 kPa	–	9.18e-08
606.15 K, 3750 kPa	–	6.01e-08
606.15 K, 4000 kPa	–	3.93e-08
606.15 K, 4500 kPa	–	4.69e-08
607.34 K, 4500 kPa	126.78	–
607.52 K, 5500 kPa	175.37	–
607.76 K, 3500 kPa	102.4	–
607.96 K, 6500 kPa	215.37	–
608.05 K, 4000 kPa	–	4.03e-08
608.2 K, 6500 kPa	–	5.56e-08
608.2 K, 7500 kPa	244.31	5.77e-08
608.32 K, 4500 kPa	–	4.68e-08
608.52 K, 5500 kPa	–	5.29e-08
608.76 K, 3500 kPa	–	9.76e-08
608.76 K, 3750 kPa	–	6.8e-08
611.06 K, 3500 kPa	–	1.02e-07
611.06 K, 3750 kPa	–	7.39e-08
611.06 K, 4000 kPa	–	4.62e-08
611.06 K, 4500 kPa	–	4.67e-08
612.08 K, 6500 kPa	204.42	–
612.41 K, 4500 kPa	119.01	–
612.44 K, 7500 kPa	231.43	–
612.76 K, 5500 kPa	155.8	5.29e-08
613.1 K, 4000 kPa	–	5.12e-08
613.13 K, 3500 kPa	–	1.06e-07
613.13 K, 3750 kPa	–	7.87e-08
613.18 K, 4500 kPa	–	4.67e-08
613.44 K, 6500 kPa	–	5.57e-08
613.44 K, 7500 kPa	–	5.8e-08
614.13 K, 3500 kPa	114.25	–
617.26 K, 4500 kPa	117.55	–
617.59 K, 5500 kPa	146.8	–
617.77 K, 3500 kPa	120.4	–
617.89 K, 6500 kPa	190.53	–
618.03 K, 7500 kPa	215.06	–
622.62 K, 4500 kPa	123.77	–
622.88 K, 5500 kPa	141.99	–
623.3 K, 6500 kPa	178.81	–
623.42 K, 7500 kPa	202.08	–
624.61 K, 3500 kPa	132.31	–
627.48 K, 4500 kPa	131.02	–
627.58 K, 5500 kPa	142.32	–
628.12 K, 6500 kPa	174.89	–
628.37 K, 3500 kPa	138.25	–
628.37 K, 7500 kPa	195.46	–
632.52 K, 4500 kPa	139.67	–
632.87 K, 5500 kPa	144.73	–
633.02 K, 3500 kPa	146.63	–
633.36 K, 6500 kPa	169.7	–
633.89 K, 7500 kPa	188.26	–
636.92 K, 6500 kPa	166.48	–
637.28 K, 4500 kPa	147.53	–
637.41 K, 7500 kPa	184.9	–
637.84 K, 5500 kPa	148.3	–
640.05 K, 3500 kPa	158.02	–
643.67 K, 3500 kPa	164.41	–
644.05 K, 6500 kPa	165.61	–
644.15 K, 5500 kPa	155.54	–
644.29 K, 4500 kPa	159.81	–
644.35 K, 7500 kPa	182.38	–
648.28 K, 6500 kPa	165.79	–
648.38 K, 7500 kPa	183.05	–
649.22 K, 5500 kPa	165.88	–
649.31 K, 4500 kPa	169.65	–
649.66 K, 3500 kPa	174.95	–
651.37 K, 6500 kPa	168.71	–
651.47 K, 7500 kPa	183.8	–
652.78 K, 3500 kPa	182.03	–
653.1 K, 5500 kPa	173.23	–
653.61 K, 4500 kPa	178.48	–
657.54 K, 5500 kPa	181.63	–
658.91 K, 4500 kPa	189.3	–
659.26 K, 3500 kPa	195.63	–
659.56 K, 6500 kPa	180.93	–
659.71 K, 7500 kPa	190.24	–
663.28 K, 7500 kPa	193.08	–
663.77 K, 3500 kPa	204.23	–
663.99 K, 4500 kPa	199.13	–
664.58 K, 6500 kPa	192.76	–
664.68 K, 5500 kPa	197.15	–
668.06 K, 5500 kPa	204.67	–
668.13 K, 6500 kPa	200.59	–
668.18 K, 4500 kPa	208.75	–
668.2 K, 3500 kPa	214.84	–
668.28 K, 7500 kPa	199.93	–
672.69 K, 3500 kPa	224.44	–
673.3 K, 4500 kPa	220	–
673.3 K, 5500 kPa	214.18	–
673.38 K, 6500 kPa	210.65	–
673.39 K, 7500 kPa	207.8	–
